Results as given in publication PMC8658787, “Screening of Potential Thrombin and Factor Xa Inhibitors from the Danshen–Chuanxiong Herbal Pair through a Spectrum–Effect Relationship Analysis” (Molecules, 2021).

Target: T1, thrombin (THR) (Homo sapiens, UniProt P00734)
T1 construct: purchased Sigma-Aldrich
Test: THR inhibitory activity assay (chromogenic substrate S-2238, absorbance at 405 nm)
Type: biochemical
Conditions: in vitro enzymatic activity assay
Procedure: A PBS buffer was prepared by dissolving 1.44 g of Na2HPO4 and 0.24 g of KH2PO4 in 800 mL of water for immediate use (pH was adjusted to 8.0 by 1.0 M NaOH). A stock solution of THR (125 U/mL) was prepared by dissolving 4.16 mg of THR in 1.0 mL of PBS. A stock solution of FXa (0.5 IU/mL) was prepared by dissolving 5.0 mg of FXa in 1.0 mL of PBS. Stock solutions of S-2238 (2 mg/mL) and S-2765 (2.5 mg/mL) were prepared in PBS. The DC extract samples (10 mg/mL) were prepared in a PBS buffer and diluted to 5.0 and 2.5 mg/mL as necessary.
THR and FXa inhibitory activity assays were performed with an iMark™ Microplate Absorbance Reader (Bio-Rad Laboratories, Inc., Hercules, CA, USA). A DC extract solution of 50 μL and a 50 μL THR solution were mixed and incubated for 10 min at 37 °C. Subsequently, a 100 μL S-2238 (2 mg/mL) solution as the chromogenic substrate was added to start the reaction in the microplate reader. The absorbance was monitored at 405 nm every 30 s for 10 min, and each group was measured three times. As a control group, the operation process was similar to the experimental group but without a DC extract. […] The inhibition rate (%) of THR and FXa was calculated using Formula (1). […] The results were expressed as the mean ± standard deviation (SD) of three experiments.

IC50: 64.9 µM
Structure (SMILES): CC1CNc2c(cccc2S(=O)(=O)N[C@@H](CCCNC(=N)N)C(=O)N2CC[C@@H](C)C[C@@H]2C(=O)O)C1 (stereo partly shown) [Argatroban, reference compound]
